Assays:
[1] = target: integrin αvβ6 (Homo sapiens, UniProt P06756+P18564); experiment: Competitive binding ELISA against biotinylated LAP; settings: triplicate, read-out: binding affinity for integrin αvβ6 (IC50)
[2] = tested on: αvβ6 (+) BxPC-3 tumors; experiment: In vivo targeted radionuclide therapy; design: species or system mice
Protocol: (§1) Female nu/nu nude mice (6-8 weeks old) were purchased from Charles River Laboratories (Wilmington, MA, USA) and handled according to the UC Davis Institutional Animal Care and Use Committee. BxPC-3 cells (5×10^6) in 100 μl 1:1 GFR-Matrigel: serum-free RPMI were implanted subcutaneously into the left shoulder flank and allowed to grow for approximately 2 weeks (therapy study) and 3 weeks (0.5-1 cm in diameter, for imaging and biodistribution studies). All cells were evaluated with flow cytometry before injection to confirm integrin expression levels. Food and water were available ad libitum.
For in vivo targeted radionuclide therapy, mice were implanted subcutaneously with BxPc-3 tumor cells 14 days before start of treatment. Mice were randomly chosen and divided into four treatment groups: Control Saline (Group 1, n=5); Control Peptide DOTA-ABM-5G (Group 2, n=6); 1×74 MBq [^177Lu]Lu DOTA-ABM-5G (Group 3, n=10); and 2×37 MBq [^177Lu]Lu DOTA-ABM-5G (Group 4, n=7). Average tumor volume at the start of the treatment was 14-218 mm^3. Group 2 received 20 μg of peptide DOTA-ABM-5G per mouse as a control. Group 3 received 74 MBq on day 14 post-tumor implant (treatment day 0), and Group 4 received two doses of 37 MBq on day 14 and 21 post-tumor implant (treatment days 0 and 7), at a specific activity of 18.5 MBq/nmol. Body weights and tumor volumes were measured the day before treatment, and twice a week post-treatment throughout the study. Tumor volume (TV) was determined according to the equation TV=(π/6)*L*W*H, where L is the longest axis, W is the axis perpendicular to L and H is perpendicular to the plane of L and W. End point determination was based on the longest axis of TV exceeding 2 cm, active ulceration, or compromised health of the mouse, including >20% loss of body weight from the start of the study. Survival curves are depicted as a Kaplan-Meier plot, using start of treatment as day 0.

Sequences of proteins named here, by UniProt entry; tags and fusion partners are left off. Residues count along the entry.
UniProt P06756, 31-1048: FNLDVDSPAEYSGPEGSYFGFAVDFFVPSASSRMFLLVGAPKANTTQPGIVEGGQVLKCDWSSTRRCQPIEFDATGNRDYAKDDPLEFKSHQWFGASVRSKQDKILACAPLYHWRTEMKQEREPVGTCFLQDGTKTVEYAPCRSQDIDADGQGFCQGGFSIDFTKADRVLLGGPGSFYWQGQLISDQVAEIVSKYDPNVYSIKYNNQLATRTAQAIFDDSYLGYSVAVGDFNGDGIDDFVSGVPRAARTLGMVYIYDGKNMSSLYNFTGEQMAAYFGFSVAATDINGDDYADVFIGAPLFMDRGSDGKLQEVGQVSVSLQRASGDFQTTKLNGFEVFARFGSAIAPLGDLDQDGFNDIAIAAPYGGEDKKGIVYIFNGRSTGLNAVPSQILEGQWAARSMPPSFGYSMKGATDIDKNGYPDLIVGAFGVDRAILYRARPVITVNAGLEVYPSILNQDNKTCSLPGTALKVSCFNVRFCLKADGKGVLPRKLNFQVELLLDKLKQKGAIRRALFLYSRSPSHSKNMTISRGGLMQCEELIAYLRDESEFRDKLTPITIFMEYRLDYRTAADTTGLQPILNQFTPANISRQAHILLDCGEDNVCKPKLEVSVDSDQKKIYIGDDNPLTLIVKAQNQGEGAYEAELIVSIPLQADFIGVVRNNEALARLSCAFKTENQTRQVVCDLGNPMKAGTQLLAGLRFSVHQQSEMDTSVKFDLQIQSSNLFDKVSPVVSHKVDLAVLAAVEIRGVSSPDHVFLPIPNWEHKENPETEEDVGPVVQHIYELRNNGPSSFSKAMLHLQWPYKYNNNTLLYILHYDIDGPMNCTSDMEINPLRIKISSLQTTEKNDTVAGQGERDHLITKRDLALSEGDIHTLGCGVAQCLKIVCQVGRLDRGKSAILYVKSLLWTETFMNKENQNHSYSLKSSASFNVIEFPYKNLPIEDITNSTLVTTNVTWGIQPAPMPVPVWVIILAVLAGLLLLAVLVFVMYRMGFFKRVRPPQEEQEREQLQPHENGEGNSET
UniProt P18564, 22-788: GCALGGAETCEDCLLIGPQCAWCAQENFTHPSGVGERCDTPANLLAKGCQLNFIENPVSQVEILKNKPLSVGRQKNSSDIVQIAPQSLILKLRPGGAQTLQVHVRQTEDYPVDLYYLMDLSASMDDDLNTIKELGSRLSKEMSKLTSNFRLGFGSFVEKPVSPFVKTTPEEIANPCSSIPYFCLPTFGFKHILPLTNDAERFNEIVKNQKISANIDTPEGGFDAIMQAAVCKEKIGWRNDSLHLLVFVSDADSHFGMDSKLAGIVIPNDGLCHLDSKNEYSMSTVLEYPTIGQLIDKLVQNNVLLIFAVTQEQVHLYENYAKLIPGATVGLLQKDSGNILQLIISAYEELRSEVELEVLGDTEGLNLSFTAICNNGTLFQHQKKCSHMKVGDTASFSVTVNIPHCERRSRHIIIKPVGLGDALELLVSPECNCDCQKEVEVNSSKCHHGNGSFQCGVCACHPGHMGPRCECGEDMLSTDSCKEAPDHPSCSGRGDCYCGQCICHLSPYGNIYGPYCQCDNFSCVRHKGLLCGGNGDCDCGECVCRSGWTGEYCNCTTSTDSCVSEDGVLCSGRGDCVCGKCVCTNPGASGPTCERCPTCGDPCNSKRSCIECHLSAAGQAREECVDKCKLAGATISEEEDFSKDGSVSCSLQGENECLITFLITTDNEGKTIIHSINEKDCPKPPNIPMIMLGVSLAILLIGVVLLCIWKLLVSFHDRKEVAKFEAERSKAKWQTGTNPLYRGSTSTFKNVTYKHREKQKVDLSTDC

[3] = In vitro serum stability, human serum; format: in vitro ADME; settings: 2 h, 37° C., read-out: stability in human serum (intact radiotracer)
Protocol: Mouse or human serum (500 μl, both purchased from Millipore Sigma) was combined with an aliquot of the formulated radiotracer (100-200 μCi) and incubated at 37° C. Aliquots (100-200 μl) were drawn for analysis at 1 and 2 h post-incubation for the ^68Ga radiotracers and 1 and 24 h post-incubation for ^177Lu radiotracers, mixed with absolute ethanol (500 μl, 4° C.), and centrifuged (2300× g, 3 min) to precipitate out serum proteins. The supernatant was diluted with HPLC Solvent A and analyzed by radio-HPLC to determine the fraction of intact radiotracer as disclosed in Hausner et al., “In vitro and in vivo evaluation of the effects of aluminum [^18F]fluoride radiolabeling on an integrin αvβ6-specific peptide” Nuclear medicine and biology.

[4] = tested on: BxPC-3 tumors; experiment: Small animal PET/CT imaging; format: in vivo, mice
Protocol: as §1
For small animal imaging, aliquots of the formulated radiotracer (7.4-9.25 MBq in 100 μl) in PBS solution (pH 7.2) were injected intravenously (i.v.) via a catheter into the tail vein of mice (n=3/time point/radiotracer) anesthetized with 2-3% isoflurane in medical grade oxygen. Animals were imaged two at a time, side by side in a feet-first prone position on the scanner bed. Anesthesia was maintained during the scan at 1.5-2.5% isoflurane in medical-grade oxygen. A static, single-frame 15 min. emission scan was acquired at 1 h, and a 30 min. scan at 2 h post-injection (p.i.) for mice injected with [^68Ga]Ga DOTA-5G. A static 30 min. scan was acquired at 2 h and a 60 min. scan at 4 h p.i. for mice injected with [^68 Ga]Ga DOTA-ABM-5G. 57 Cobalt transmission scans for attenuation correction and CT scans for anatomical reference were also acquired at each time point.

[5] = tested on: BxPC-3 (αvβ6 (+)) tumors; experiment: Biodistribution in mice bearing BxPC-3 tumors; format: in vivo
Protocol: as §1
For blocking studies, respective non-chelated cold peptide (30 mg/kg, 10 mg/mL (DOTA-5G) and 48 mg/kg, 16 mg/mL (DOTA-ABM-5G) solution in PBS) was injected 10 min. before the formulated radiotracer. At each time point, the mice (n=3/time point/radiotracer) were anesthetized and sacrificed. The tissues were collected, rinsed with PBS, and the radioactivity of each measured with a gamma counter. Radioactivity concentrations were calibrated, decay-corrected, and expressed as percent of injected dose per gram of tissue (% ID/g).

Q: Which IC50 [1] does the source give for `CC(C)C[C@H](NC(=O)[C@H](CC(=O)O)NC(=O)CNC(=O)[C@H](CCCNC(=N)N)NC(=O)[C@H](CC(C)C)NC(=O)[C@H](CC(N)=O)NC(=O)[C@@H]1CCCN1C(=O)[C@@H](NC(=O)CNC(=O)[C@H](CC(N)=O)NC(=O)CNC(=O)CCOCCOCCOCCOCCOCCOCCOCCOCCOCCOCCOCCOCCOCCOCCOCCOCCOCCOCCOCCOCCOCCOCCOCCOCCOCCOCCOCCOCCNC(=O)CN1CCN(CC(=O)O)CCN(CC(=O)O)CCN(CC(=O)O)CC1)C(C)C)C(=O)N[C@@H](CCC(N)=O)C(=O)N[C@H](C(=O)N[C@@H](CC(C)C)C(=O)NCC(=O)N[C@@H](CCC(N)=O)C(=O)N[C@@H](CCCNC(=N)N)C(=O)N[C@H](C(=O)NCC(=O)N[C@@H](CCCNC(=N)N)C(=O)N[C@H](C(=O)NCCOCCOCCOCCOCCOCCOCCOCCOCCOCCOCCOCCOCCOCCOCCOCCOCCOCCOCCOCCOCCOCCOCCOCCOCCOCCOCCOCCOCCC(N)=O)[C@@H](C)O)C(C)C)C(C)C` [DOTA-5G] here?
A: Its IC50 is 35 ± 1 nM.

Q: With `CC(C)C[C@H](NC(=O)[C@H](CC(=O)O)NC(=O)CNC(=O)[C@H](CCCNC(=N)N)NC(=O)[C@H](CC(C)C)NC(=O)[C@H](CC(N)=O)NC(=O)[C@@H]1CCCN1C(=O)[C@@H](NC(=O)CNC(=O)[C@H](CC(N)=O)NC(=O)CNC(=O)CCOCCOCCOCCOCCOCCOCCOCCOCCOCCOCCOCCOCCOCCOCCOCCOCCOCCOCCOCCOCCOCCOCCOCCOCCOCCOCCOCCOCCNC(=O)[C@H](CCCCNC(=O)[C@H](CC(=O)O)NC(=O)CCCNC(=O)CCCc1ccc(I)cc1)NC(=O)CN1CCN(CC(=O)O)CCN(CC(=O)O)CCN(CC(=O)O)CC1)C(C)C)C(=O)N[C@@H](CCC(N)=O)C(=O)N[C@H](C(=O)N[C@@H](CC(C)C)C(=O)NCC(=O)N[C@@H](CCC(N)=O)C(=O)N[C@@H](CCCNC(=N)N)C(=O)N[C@H](C(=O)NCC(=O)N[C@@H](CCCNC(=N)N)C(=O)N[C@H](C(=O)NCCOCCOCCOCCOCCOCCOCCOCCOCCOCCOCCOCCOCCOCCOCCOCCOCCOCCOCCOCCOCCOCCOCCOCCOCCOCCOCCOCCOCCC(N)=O)[C@@H](C)O)C(C)C)C(C)C` [DOTA-ABM-5G] as the compound, how does the median survival post-treatment ([2]; Group 2, peptide control, 20 μg per mouse) read?
A: Its median survival post-treatment is 56 days.

Q: And the “time by which all mice had met the end point criterion” value ([2]; Group 2, peptide control, 20 μg per mouse, from start of treatment)?
A: The value was ≤ 68 days.

Q: And the “adverse events and weight loss during the study” value ([2]; any group, 120 days)?
A: Its value is “No adverse events and weight loss”.

Q: Which remaining at 2 h [3] does the source give for `CC(C)C[C@H](NC(=O)[C@H](CC(=O)O)NC(=O)CNC(=O)[C@H](CCCNC(=N)N)NC(=O)[C@H](CC(C)C)NC(=O)[C@H](CC(N)=O)NC(=O)[C@@H]1CCCN1C(=O)[C@@H](NC(=O)CNC(=O)[C@H](CC(N)=O)NC(=O)CNC(=O)CCOCCOCCOCCOCCOCCOCCOCCOCCOCCOCCOCCOCCOCCOCCOCCOCCOCCOCCOCCOCCOCCOCCOCCOCCOCCOCCOCCOCCNC(=O)[C@H](CCCCNC(=O)[C@H](CC(=O)O)NC(=O)CCCNC(=O)CCCc1ccc(I)cc1)NC(=O)CN1CCN(CC(=O)O)CCN(CC(=O)O)CCN(CC(=O)O)CC1)C(C)C)C(=O)N[C@@H](CCC(N)=O)C(=O)N[C@H](C(=O)N[C@@H](CC(C)C)C(=O)NCC(=O)N[C@@H](CCC(N)=O)C(=O)N[C@@H](CCCNC(=N)N)C(=O)N[C@H](C(=O)NCC(=O)N[C@@H](CCCNC(=N)N)C(=O)N[C@H](C(=O)NCCOCCOCCOCCOCCOCCOCCOCCOCCOCCOCCOCCOCCOCCOCCOCCOCCOCCOCCOCCOCCOCCOCCOCCOCCOCCOCCOCCOCCC(N)=O)[C@@H](C)O)C(C)C)C(C)C` [[^68Ga]Ga DOTA-ABM-5G, metal not drawn] here?
A: The remaining at 2 h was 100%.

Q: What about the “tumor uptake in PET/CT images compared to [^68Ga]Ga DOTA-5G” value ([4]; 2 h p.i.) of the same compound?
A: The value was “significantly higher”.

Q: And the “uptake in the BxPC-3 tumor, imaging and biodistribution” value ([4]; all time points (1 and 2 h, or 2 and 4 h p.i.))?
A: The value was “evident”.

Q: And the “circulation in blood by PET imaging compared to [^68Ga]Ga DOTA-5G” value ([4]; especially at 2 h)?
A: The value was “increased circulation”.

Q: What about the “uptake Blood” value ([5]; 2 h p.i.) of the same compound?
A: Its value is 8.89±0.89 % ID/g.

Q: And the “uptake BxPC-3 tumor” value ([5]; 2 h p.i.)?
A: Its value is 9.39±1.9 % ID/g.

Q: And the “uptake Kidneys” value ([5]; 2 h p.i.)?
A: Its value is 19.62±2.83 % ID/g.

Q: And the “uptake in stomach and intestines as compared to [^68Ga]Ga DOTA-5G” value ([5]; 2 h p.i., all organs)?
A: Its value is ≥ 4 fold.

Q: What about the “uptake BxPC-3 tumor” value ([5]; 4 h p.i.) of the same compound?
A: Its value is 10.35±2.6 % ID/g.

Q: What about the “uptake Kidneys” value ([5]; 4 h p.i.) of the same compound?
A: Its value is 25.92±2.24 % ID/g.
